Data reported in ChEMBL document CHEMBL3286108, “Novel arylsulfonamide derivatives with 5-HT₆/5-HT₇ receptor antagonism targeting behavioral and psychological symptoms of dementia” (J Med Chem, 2014).

Protein sequences, listed by entry. Tags and fused reporters are not part of them. Lines headed by an entry give the natural chain unless they say otherwise; changes in a name come on top.
UniProt P28335: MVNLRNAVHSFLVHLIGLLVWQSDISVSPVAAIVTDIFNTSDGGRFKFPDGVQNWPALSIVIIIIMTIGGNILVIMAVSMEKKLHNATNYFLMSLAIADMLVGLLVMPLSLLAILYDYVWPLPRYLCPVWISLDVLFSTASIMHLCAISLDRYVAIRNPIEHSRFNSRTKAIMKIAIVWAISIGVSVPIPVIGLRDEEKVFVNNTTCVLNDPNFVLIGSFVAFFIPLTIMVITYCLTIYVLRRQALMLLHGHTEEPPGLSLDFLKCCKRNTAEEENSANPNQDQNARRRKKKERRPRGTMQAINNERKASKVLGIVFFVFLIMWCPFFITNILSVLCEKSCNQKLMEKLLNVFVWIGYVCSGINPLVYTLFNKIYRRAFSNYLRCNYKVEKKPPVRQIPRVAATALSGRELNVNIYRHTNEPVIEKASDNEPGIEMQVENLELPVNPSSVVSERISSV

Target: 5-hydroxytryptamine receptor 2C (Homo sapiens, UniProt P28335)
Assay: Antagonist activity at human recombinant 5-HT2C receptor assessed as inhibition of serotonin-induced inositol phosphate accumulation
Format: functional

- IC50: 9.4 nM
Compound: Cn1ccc2cc3c(cc21)CCN3C(=O)Nc1cccnc1
